Data taken from patent US7855174B2 (priority 2007, dated 2010).
This is a selection: effects in other tests are not listed, and their absence says nothing.

With sodium nitroprusside the relaxation (rat mesenteric arteries; 10^−5 mol/L SNP, vessels pre-contracted with NE 3×10^−6 mol/L, n=6) was 51.8±5.8%, the EC50 (rat mesenteric arteries; read-out: approximate EC50 in isolated vessels, as restated in Example 3) was 10 µM and the “effect on NE concentration-dependent Ser19 and total pMLC” value (MLC; SNP 10^−5 mol/L or low dose CAL 3×10^−8 mol/L) was “decreases in NE concentration-dependent Ser19 and total pMLC”. For the same substance, the “change of Ser19 pMLC and total pMLC with concentration” value (MLC; agent alone, SNP in vessels pre-contracted with 3×10−6 mol/L NE) was “concentration-dependent decreases in both Ser19 and total pMLC”.
